# Measurements: article PMC8566587, “Selection for constrained peptides that bind to a single target protein” (Nature Communications, 2021)
# Protein sequences, listed by entry. Tags and fused reporters are not part of them. Lines headed by an entry give the natural chain unless they say otherwise; changes in a name come on top.
# UniProt Q9X2V7: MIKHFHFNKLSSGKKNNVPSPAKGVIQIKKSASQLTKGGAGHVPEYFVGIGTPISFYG
# How the values were obtained:
# [1] = read-out: binding to its target; cited from earlier work
# [2] = test system: Mdm2*; type: cell-based
# [3] = test system: Escherichia coli RNA polymerase; settings: read-out: binding to its target; cited from earlier work
substance,measurement,setting,value
vancomycin,pKd,[1],~6.00
TSFAEYWNLLSP [PMI],mean_mdm2,[2],2682.43 and 4379.99
"microcin J25 (GGAGHVPEYFVGIGTPISFYG; Microcin J25; UniProt Q9X2V7 38-58, looked up)",pKd,[3],5.70

# pKd: −log10 of the molar value. Several values for one entry are separate records, joined by “and”; a condition that tells them apart may be missing. Equal values may be shown once.
